From US7666885B2, “Enzyme inhibitors” (Consejo Superior de Investigaciones Cientificas, priority 2000, dated 2010) come the findings set out here.

By UniProt entry, the sequences of proteins in these tests, tags left out.
UniProt P49841, whole entry: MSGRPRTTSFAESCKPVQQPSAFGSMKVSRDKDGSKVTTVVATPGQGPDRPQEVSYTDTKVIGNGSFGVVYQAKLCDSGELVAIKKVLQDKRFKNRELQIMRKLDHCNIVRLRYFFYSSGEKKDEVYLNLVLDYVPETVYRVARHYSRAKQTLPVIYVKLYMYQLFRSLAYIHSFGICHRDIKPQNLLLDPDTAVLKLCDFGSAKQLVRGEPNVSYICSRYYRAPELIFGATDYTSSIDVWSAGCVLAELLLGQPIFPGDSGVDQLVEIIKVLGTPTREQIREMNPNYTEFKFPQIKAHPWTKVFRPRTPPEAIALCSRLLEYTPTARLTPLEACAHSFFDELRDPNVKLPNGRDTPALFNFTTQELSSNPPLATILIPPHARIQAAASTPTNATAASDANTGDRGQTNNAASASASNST

For one experiment, the target named is GSK-3β (Homo sapiens, UniProt P49841). Nature of the experiment: GSK-3β inhibition (radiometric, GS 1 peptide). In kind it is biochemical. As to conditions: GSK-3 enzyme (Sigma), 15 μM ATP, Tables 3, 3a, 4.
A further experiment deals with N2A cells. As to the kind of experiment: Cell cycle blockade. Particulars: N2A cell cultures, Table 5.

A value given as a limit tells only on which side of the number the result lay.

With `CCn1sc(=O)n(-c2ccccc2)c1=O`, at GSK-3β, the IC50 – broadly, the concentration at which inhibition is half-maximal – was 6 µM.
`O=c1sn(Cc2ccccc2)c(=O)n1Cc1ccccc1` gave an IC50 in the experiment with N2A cells of 2 to 3 µM.
Take `CCn1c(=O)[nH]sc1=Nc1ccccn1`: the IC50 against GSK-3β is above 100 µM.
At GSK-3β, `CCn1c(=Nc2ccccn2)sn(C)c1=O` returned an IC50 above 100 µM.
Regarding `CCNC(=O)N=c1n(CC)sc(=O)n1-c1ccccc1`, the IC50 against GSK-3β is 75 µM.
On the same count and under the same terms, next, `Cn1sc(=Nc2ccccn2)n(C)c1=O`: above 100 µM.
In the case of `CCn1sc(=Nc2ccccn2)n(CC)c1=O`, on GSK-3β, the IC50 was above 100 µM.
Still for that read-out and setting: next, `CCOC(=O)N=c1n(C(=O)OCC)sc(=S)n1-c1ccccc1`: above 10 µM; `CCn1sc(=O)n(-c2ccccc2)c1=N`: 65 µM; `CCn1c(=Nc2ccccn2)sn(C)c1=S`: 10 µM.
On the same count and under the same terms, next, `O=c1sn(-c2ccccc2)c(=O)n1-c1ccccc1`: 8 µM.
